Entries after “also recorded” stand apart in the source; their conditions may differ.
System: porcine aortic endothelial (PAE) cells
Experiment: Proliferation assay (ATPLITE), PAE
Type: cell-based
Settings: FIG. 13B, listed as apelin-13(F13A)
Description: Proliferation response profiles of apelin, salcut-NH2, salcut-Gly, and/or salcut-OH on a variety of endothelial and tumor cell lines or primary endothelial cells were obtained using the following method. Human blood vessel endothelial cells (HMEC-1), human primary microvascular dermal EC (dB1), human lymphatic endothelial cells (LEC), human mast cells (HMC-1), human breast cancer cells (MCF-7; T47D), human gastric cancer cells (HTB 103), human lung cancer cells (A549), monkey endothelial cells (CRL 1780), and porcine aortic endothelial cells (PAE) were seeded at 25,000 cells per well at 50 μl volume in appropriate media containing 0.5% serum in a 96 well plate. After overnight incubation the peptide was added in serum free media and cells were incubated for 3-5 days. To measure growth proliferation, the adenosine triphosphate ATPLITE™ one-step assay (PerkinElmer), which is based on firefly luciferase and has high sensitivity for quantification of viable cells, was used. Data were expressed as mean plus minus standard deviation. Statistical analyses were performed using Student's t-test, p values less than 0.05 were considered statistically significant.
Endothelial cell proliferation assays were performed as described above with both spontaneously immortalized porcine aortic endothelial (PAE) cells and SV40 immortalized human dermal microvascular endothelial (HMEC-1).

(Ala13)-apelin-13
effect of APJ antagonist on Salcut-NH2 regulated proliferation: but not salcut-NH2 mediated growth; also recorded: is not blocked by apelin-13(F13A)
